## scFv variants of Ab-14 (light chain) against a SARS-CoV-2 spike peptide

Values reported by Li et al. 2023, doi:10.1038/s41467-023-39022-2 (FLAb copy).

All variants were tested on one target, the spike HR2 peptide PDVDLGDISGINAS (SARS-CoV-2).

Ab-14 is the parent antibody, in scFv form: VH, then a (GGGGS)3 linker, then VL. The heavy chain is unchanged in all variants.
VH: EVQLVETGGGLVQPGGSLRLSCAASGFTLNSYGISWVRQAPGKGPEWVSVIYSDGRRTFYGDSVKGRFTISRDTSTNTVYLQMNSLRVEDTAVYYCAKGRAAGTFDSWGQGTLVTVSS
VL: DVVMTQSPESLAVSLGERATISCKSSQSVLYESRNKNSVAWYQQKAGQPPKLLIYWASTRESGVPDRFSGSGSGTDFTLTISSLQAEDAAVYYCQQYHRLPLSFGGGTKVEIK

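Phage display of a naive human antibody library on the peptide gave the parent. These sequences belong to a second round, designed from the earlier measurements on random variants of the parent. Group labels follow the data file (En: ensemble of fine-tuned language models; GP: Gaussian process model; HC: hill climbing; Gen: genetic algorithm; Gibbs: Gibbs sampling; a sequence that several methods proposed may carry one label only). The scFvs were displayed on barcoded MATa yeast, the peptide on MATalpha yeast. Pairs that bind mate more often; barcode pairs of the diploids are counted by sequencing. A regression on co-assayed BCL2-family reference pairs converts the normalised counts of each replicate to an apparent Kd. There are six technical replicates.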

Each variant is given by its three light chain CDRs, as the data file delimits them; those of the parent are KSSQSVLYESRNKNSVA, WASTRES, QQYHRLPLS.
Variants here have more than six changes.
Kd is apparent (estimated from mating counts) and averaged on the log scale over replicates with a signal. Smaller is tighter.
An entry "no signal" has no value in the source: the pair was not observed among the diploids in any replicate. This suggests poor binding but is not conclusive.

For KLMGSMLYEQRMKNSVA / QASVRMS / QQYHRLPLS [GP_Gibbs], the assay gave 2.5 nM (6 of 6 replicates; controls 0 of 18). Variant IVSQLMLWGYHAKNSIA / EAETRFN / QQYDRLPLF [En_Gen] showed no signal (0 of 6 replicates; controls 0 of 18). Variant KFMQMVMQEDRNKNSVA / QASTRMQ / QQYHRLPLS [GP_Gibbs] gave 1.0 nM (6 of 6 replicates; controls 3 of 18). With KLRQSTVIEQFNKNNVA / EMTTRES / QSYDRLPLS [En_HC] the result was 120 nM (2 of 6 replicates; controls 0 of 18). Variant KISQMVRVGSTHSNSIA / EEETRAK / QQYHRLPLS [En_Gen] gave 77 nM (1 of 6 replicates; controls 0 of 18). Variant KFFGGIPEQERDDYSIA / KGTLREV / QQYQRLPLS [En_Gibbs] gave 3.9 nM (6 of 6 replicates; controls 5 of 18). Variant KLMQGWLYESRNKNSVA / NASMRLE / QQYHRLPLS [GP_Gibbs] showed 1.9 nM (6 of 6 replicates; controls 0 of 18). With KLGLVTNGISFSKNSVA / EQSTREN / QQYDRLPLS [En_HC] the result was 49 nM (6 of 6 replicates; controls 2 of 18).

Variant KLTQVTGHLSAIKNNVA / EMVTREN / QQYNRLPLS [En_Gen] gave 3.7 nM (6 of 6 replicates; controls 1 of 18). For HIPQMVAYGSCNKNNVA / QVSTREE / QQYHRLPLS [En_HC], the assay gave 65 nM (6 of 6 replicates; controls 0 of 18). With KISQVTHSESRNKNSIA / EMVTREV / QQYDRLPLS [En_HC] the result was 4.4 nM (6 of 6 replicates; controls 0 of 18). For MVSQLMMWGLHIKNSIA / EAVTRLN / QQYDRLPLF [En_Gen], the assay gave 230 nM (1 of 6 replicates; controls 0 of 18). Variant KLMMSLQGNPKDHYAIA / EGISATT / QQYARLPLM [En_Gibbs] showed 17 nM (6 of 6 replicates; controls 0 of 18). Variant KLSQSTEYESRMKNSVA / NASYREQ / QQYHRLPLS [GP_Gibbs] showed 1.4 nM (6 of 6 replicates; controls 0 of 18). Variant TIGQSLMQGIRNRSNVA / EVSQRLN / QQYDRLPLF [En_Gen] showed 130 nM (6 of 6 replicates; controls 1 of 18). With HIQDDAGGLSEQFDSVA / STEERSY / QQYSRLPLS [En_Gibbs] the result was 1.8 µM (1 of 6 replicates; controls 0 of 18).

For KVSQSVMGGSRNKCSVA / NASQREQ / QQYHRLPLS [GP_Gibbs], the assay gave 2.7 nM (6 of 6 replicates; controls 1 of 18). For KLSLVLGVSKQSEKNIA / NMRLKVA / QQYDRLPLT [En_Gibbs], the assay gave 16 nM (6 of 6 replicates; controls 0 of 18). For KMKQSMEGNPKNWNSVA / EVESAKE / QQYARLPLM [En_Gibbs], the assay gave no signal (0 of 6 replicates; controls 0 of 18). Variant QLEFERGDAYKQGNAIA / GGTESLH / QQYAMLPLS [En_Gibbs] showed 1.3 nM (6 of 6 replicates; controls 2 of 18). For KIAATVLYESGTANSVA / QNSTRES / QQYHRLPLS [En_HC], the assay gave 220 nM (6 of 6 replicates; controls 1 of 18). For VVMQNFIDGMERQYSIA / ETSRVME / QQYFHLPLI [En_Gibbs], the assay gave 23 nM (6 of 6 replicates; controls 1 of 18). With KLDQSVEEKSRNKNSVA / EASTRES / QDYHRLPLS [GP_Gibbs] the result was 1.8 nM (6 of 6 replicates; controls 0 of 18). Variant KFSQSDDYEDRNKNSVA / SGSQRSS / QQYHRLPLS [GP_Gibbs] showed 690 pM (6 of 6 replicates; controls 0 of 18).

With KLDAWQDYESRNKASVA / QASTRES / QQYHRLPLS [GP_Gibbs] the result was 440 pM (6 of 6 replicates; controls 1 of 18). With KISQSVGYQDRNKNSVA / NAQTRMQ / QQYHRLPLS [GP_Gibbs] the result was 16 nM (5 of 6 replicates; controls 0 of 18). For KLLQEVTGHSRNRNSVA / HNSTRED / QQYDRLPLI [En_HC], the assay gave no signal (0 of 6 replicates; controls 0 of 18). Variant KARQSNLYEDRNQNSVA / SASQRLD / QQYHRLPLS [GP_Gibbs] showed 1.1 nM (6 of 6 replicates; controls 0 of 18). For MITAMLRGVGRDKNSVA / NAQTRED / QHYHRLPLS [En_HC], the assay gave 400 nM (4 of 6 replicates; controls 0 of 18). For SFPESLRQQQTNVNAVA / GAQHTAR / QQYGRLPLT [En_Gibbs], the assay gave 35 nM (6 of 6 replicates; controls 0 of 18). Variant KILGEIENSTYNRNSVA / HSTTRED / QSYHRLPLS [En_HC] showed 3.6 nM (6 of 6 replicates; controls 0 of 18). Variant KFEQLDGQEDRNKNSVA / NASQRED / QQYHRLPLS [GP_Gibbs] gave 3.4 nM (6 of 6 replicates; controls 0 of 18).

Variant HLSWVWPYESRNKNSVA / NASTRES / QQYHRLPLS [GP_HC] showed 780 pM (6 of 6 replicates; controls 0 of 18). Variant KLSMVTGHLSMAKNNVA / EMVTREK / QQYNRLPLS [En_Gen] showed 630 pM (6 of 6 replicates; controls 1 of 18). For MFSQLFMYGSRNYNSVA / QASTREE / QQYHRLPLI [En_HC], the assay gave 3.2 nM (6 of 6 replicates; controls 1 of 18). For KLSGLTRLESQNKASVA / ENSTRGE / QQYFRLPLS [En_HC], the assay gave 670 pM (6 of 6 replicates; controls 2 of 18). For IISQSMMIESATHNSIA / QTETREE / QQYHHLPLI [En_HC], the assay gave 20 nM (6 of 6 replicates; controls 0 of 18). For QLEREALGGANYDYSIA / AQDVAMP / QQYDRLPLI [En_Gibbs], the assay gave 16 nM (6 of 6 replicates; controls 3 of 18). With KLAMYLEMNARTNHHIA / EANLKPS / QQYNRLPFS [En_Gibbs] the result was 7.4 nM (6 of 6 replicates; controls 0 of 18). Variant KLQQQDEYESRNKNSVA / NASCRWQ / QQYHRLPLS [GP_Gibbs] gave 24 nM (6 of 6 replicates; controls 0 of 18).

Variant KLTMITGLEKIHGNNVA / EMETREK / QQYNRLPLS [En_Gen] gave 2.0 nM (6 of 6 replicates; controls 0 of 18). Variant KMQGSYLYESRNCNSVA / NASTRLW / QQYHRLPLS [GP_Gibbs] showed 8.7 nM (6 of 6 replicates; controls 2 of 18). Variant KLSQSTWYESGMKNSVA / NASKREQ / QQYHRLPLS [GP_Gibbs] gave 2.1 nM (6 of 6 replicates; controls 0 of 18). For MVNGITDHLSKNTNSVA / ETETREE / QQYDRLPLS [En_Gen], the assay gave 7.0 nM (6 of 6 replicates; controls 1 of 18). With SISVFQNMSTQGNNSIA / GAEQKVH / QQYDRLPLY [En_Gibbs] the result was 220 nM (4 of 6 replicates; controls 0 of 18). Variant MLSEVLHMLGAKKNSIA / DLVLREN / QQYHRLPLS [En_Gen] gave 970 nM (1 of 6 replicates; controls 1 of 18). Variant SLGLVTMLEYAGRNNVA / NNSTRET / QQYDRLPLS [En_Gen] gave 50 nM (6 of 6 replicates; controls 1 of 18). Variant KFKELFNMWARAHGNVA / DADERNV / QQYSRLPIS [En_Gibbs] showed 15 nM (6 of 6 replicates; controls 0 of 18).

With NFSYALFGMDAKKKSIA / ENEVTEY / QQYAKLPLQ [En_Gibbs] the result was 7.1 nM (6 of 6 replicates; controls 2 of 18). For MISQSFLIGMKAKNSVA / QTNTRTE / QQYDRLPLI [En_HC], the assay gave 3.2 nM (6 of 6 replicates; controls 0 of 18). Variant LVDQSNLYEQRNKNSVA / SASLRFS / QQYHRLPLS [GP_Gibbs] showed 4.5 nM (6 of 6 replicates; controls 0 of 18).

Extract of 3 entries:

| CDR-L1 | CDR-L2 | CDR-L3 | group | Kd (apparent) | replicates with signal | control signals |
|---|---|---|---|---|---|---|
| SFPESLRQQQTNVNAVA | GAQHTAR | QQYGRLPLT | En_Gibbs | 35 nM | 6 of 6 | 0 of 18 |
| KLMQGWLYESRNKNSVA | NASMRLE | QQYHRLPLS | GP_Gibbs | 1.9 nM | 6 of 6 | 0 of 18 |
| KARQSNLYEDRNQNSVA | SASQRLD | QQYHRLPLS | GP_Gibbs | 1.1 nM | 6 of 6 | 0 of 18 |

A sequence measured in both rounds can read differently, since the two assays cover different ranges.
As a blank, each scFv also met three strains without target: over all light chain designs, 4% of these pairings were detected, typically at 430 nM and seldom below 38 nM. The control count says in how many pairings with the empty strains this scFv gave a signal.
In the paper, a design with two or fewer of six values counts as a poor binder.
Of ten entries with the parent sequence, four were seen in most replicates (averages 2.2 nM to 240 nM), three in one and three in none, so single entries are noisy.